Here are results for one substance from US6448031.

The subject of series [1] is H-D-Ser-Tyr-D-Ser(tBu)-Leu-Arg-Pro-NHEt.
Series [2] has as its system H-Ser-Tyr-D-Ser(tBu)-Leu-Arg-Pro-NHEt.

Regarding “immobilized chymotrypsin (agarose carrier, 2000 U/g)”, the Yield (%) of enzymatic peptide coupling after two hours, HPLC peak area; co-substrate pGlu-His-Trp-OMe was 0% in series [1] and 78.8% in series [2]. Moreover, the Yield (%) of enzymatic peptide coupling after two hours, HPLC peak area; co-substrate H-Ser-Tyr-D-Ser(tBu)-Leu-Arg-Pro-NHEt with pGlu-His-Trp-OMe amounted to 78.8%; with pGlu-D-His-Trp-OMe it was 7.8%; in the series on pGlu-His-D-Trp-OMe it was 0%.
